System: patients with chronic phase (CP/CML-CP) or accelerated phase (AP/CML-AP) CML resistant to or intolerant of ≥2 prior TKIs or with BCR-ABL T315I
Test: Phase 1 trial in resistant CML, further safety (Example 2)
Conditions: Example 2, Table 3; treatment related AE, treated population 101

Cc1ccc(C(=O)Nc2ccc(CN3CCN(C)CC3)c(C(F)(F)F)c2)cc1C#Cc1cnc2[nH]ncc2c1 [3-(2-(1H-pyrazolo[3,4-b]pyridin-5-yl)ethynyl)-4-methyl-N-(4-((4-methylpiperazin-1-yl)methyl)-3-(trifluoromethyl)phenyl)-benzamide]
21 (20.8%) n(%): Hyperglycaemia, Any Grade | Myalgia, Any Grade | leukopenia, Any Grade

— US12544370B2, “Methods for cancer therapy” (ASCENTAGE PHARMA (SUZHOU) CO., LTD., priority 2018, dated 2026)
